One-dose inflammasome screen (PubChem AID 2061109, Seoul National University)
system: mouse macrophages from bone marrow, LPS + nigericin (NLRP3)
compound dose: 5 µM
value: % inhibition of cell death (propidium iodide), 0 = stimulated, 100 = untreated, floor at 0
*: called active, above 70% Part of the library is listed.

With CC(C)(C(=O)O)c1ccc(C(=O)CCCN2CCC(OC(c3ccccc3)c3ccccc3)CC2)cc1 the inhibition was 0.6%.
Compound CC1CNCCN1S(=O)(=O)c1cccc2cnccc12 : the inhibition was 0.0%.
Compound CCN(c1cc(-c2ccc(N3CCN(C)CC3)nc2)cc(C(=O)NCc2c3c(c(C)[nH]c2=O)CCCC3)c1C)C1CCOCC1 : the inhibition was 54.8%.
Compound CCOc1ccc2nccc([C@@H](O)[C@@H]3C[C@@H]4CCN3C[C@@H]4CC)c2c1.Cl : the inhibition was 0.0%.
With CN1C(=O)[C@@H](NC(=O)c2n[nH]c(Cc3ccccc3)n2)COc2cccnc21 the inhibition was 0.0%.
With CN(C)c1ccc(C=C2C(=O)Nc3ccccc32)c2ccccc12 the inhibition was 0.0%.
Compound COc1ccc2nc(S(=O)Cc3ncc(C)cc3C)[nH]c2c1 : the inhibition was 0.0%.
For CCN(CC)c1ccc2cc(C(=O)O)c(=O)oc2c1 the inhibition was 0.0%.
For CCCN1C[C@H](C)[C@@H](O)[C@](C)(O)[C@@H](CC)OC(=O)[C@H](C)[C@@H](O[C@H]2C[C@@](C)(OC)[C@@H](O)[C@H](C)O2)[C@H](C)[C@@H](O[C@@H]2O[C@H](C)C[C@H](N(C)C)[C@H]2O)[C@](C)(O)C[C@H]1C the inhibition was 0.0%.
Compound COc1cc(C2CCN(C)CC2)ccc1Nc1ncc(C(F)(F)F)c(CCc2ccccc2CC(N)=O)n1 : the inhibition was 13.6%.
For CCCCCc1cc(O)c(C/C=C(\C)CCC=C(C)C)c(O)c1 the inhibition was 27.1%.
Compound CCOC(=O)c1cc2ccccc2n1S(=O)(=O)c1ccc(C)cc1 : the inhibition was 31.6%.
With Cc1ccc(-c2ccc3c(c2)C=C(C(=O)Nc2ccc(C[N+](C)(C)C4CCOCC4)cc2)CCC3)cc1.[Cl-] the inhibition was 0.0%.
Compound CCO[C@@H]1OC(=O)C[C@@H]1NC(=O)[C@@H]1CCCN1C(=O)[C@@H](NC(=O)c1ccc(N)c(Cl)c1)C(C)(C)C : the inhibition was 100.0*%.
With CC(C)C[C@H](NC(=O)[C@H](Cc1ccccc1)NC(=O)c1cnccn1)B(O)O the inhibition was 0.0%.
For Cc1ccc(S(=O)(=O)NC(=O)N[C@H]2[C@H]3CC[C@@](C)([C@H]2O)C3(C)C)cc1 the inhibition was 8.2%.
With COc1cc(F)c(C(C)C)cc1-c1ccc(C(F)(F)F)cc1CN1C(=O)O[C@H](c2cc(C(F)(F)F)cc(C(F)(F)F)c2)[C@@H]1C the inhibition was 0.0%.
Compound O.O=C1NC(=O)C(=O)C(=O)N1 : the inhibition was 0.0%.
For CCn1c(=O)c(-c2ccc(Cl)cc2Cl)cc2cnc(Nc3ccc(N4CCNCC4)c(F)c3)nc21 the inhibition was 83.3*%.
With CC[C@H](C)[C@@H]([C@@H](CC(=O)N1CCC[C@H]1[C@H](OC)[C@@H](C)C(=O)N[C@H](C)[C@@H](O)c1ccccc1)OC)N(C)C(=O)[C@@H](NC(=O)[C@@H](NC)C(C)C)C(C)C the inhibition was 59.5%.
Compound N#CC[C@@H](C1CCCC1)n1cc(-c2ncnc3[nH]ccc23)cn1 : the inhibition was 69.2%.
For CCC(=O)c1c(O)cc(O)cc1O the inhibition was 0.0%.
With CN1CCN(C2=Nc3ccccc3Oc3ccc(Cl)cc32)CC1 the inhibition was 0.0%.
For CCNC(=O)Nc1ccc(-c2nc(N3CCOC[C@@H]3C)c3c(n2)C(C)(C)S(=O)(=O)C3)cc1 the inhibition was 0.0%.
Compound CCOc1ccc2nc3cc(N=Nc4ccc(N)nc4N)ccc3c(N)c2c1 : the inhibition was 30.2%.
With C=CC(=O)Nc1cccc(-c2c(-c3ccccc3)oc3ncnc(N[C@H](CO)c4ccccc4)c23)c1 the inhibition was 0.0%.
Compound CCN(CC)C(=O)c1ccc(-c2cc(NCCCN3CCCCC3)c3ccccc3n2)cc1.Cl.Cl : the inhibition was 12.9%.
Compound COc1ccc(-c2csc(NC(=O)[C@H](Cc3c[nH]c4ccccc34)NS(=O)(=O)c3ccc(C)cc3)n2)cc1 : the inhibition was 70.4*%.
For Cc1cnc(NC(=O)Nc2cc(Br)c(C)cc2OC[C@@H]2CNCCO2)cn1 the inhibition was 17.3%.
Compound CN1CCC(c2cc(-c3ccncc3)c(-c3ccc(F)cc3)[nH]2)CC1 : the inhibition was 0.0%.
With COc1ccc2c(c1O)-c1c(O)c(OC)cc3c1[C@H](C2)[N+](C)(C)CC3.[Cl-] the inhibition was 67.7%.
For CN(C)[C@@H]1C(=O)C(C(N)=O)=C(O)[C@@]2(O)C(=O)C3=C(O)c4c(O)cccc4[C@@](C)(O)[C@H]3[C@H](O)[C@@H]12.Cl the inhibition was 18.7%.
Compound Cn1cnc([N+](=O)[O-])c1Sc1ncnc2nc[nH]c12 : the inhibition was 1.3%.
With c1ccc(Cn2c(Sc3ncnc4c3sc3ncccc34)nnc2-c2ccncc2)cc1 the inhibition was 79.5*%.
For CCO.C[C@H]1c2cccc(O)c2C(O)=C2C(=O)[C@]3(O)C(O)=C(C(N)=O)C(=O)[C@@H](N(C)C)[C@@H]3[C@@H](O)[C@@H]21.C[C@H]1c2cccc(O)c2C(O)=C2C(=O)[C@]3(O)C(O)=C(C(N)=O)C(=O)[C@@H](N(C)C)[C@@H]3[C@@H](O)[C@@H]21.Cl.Cl.O the inhibition was 0.0%.
For CCN1C[C@]2(COC)CC[C@H](OC)[C@]34C1[C@H](C[C@H]23)[C@@]1(O)C[C@H](OC)[C@H]2C[C@@H]4[C@@H]1[C@H]2O the inhibition was 62.2%.
For C=CC(=O)Nc1ccc2ncnc(Nc3cccc(Br)c3)c2c1 the inhibition was 57.9%.
For CCN(C(=O)c1cc(Cl)c(OCCN2CCN(C)CC2)c(Cl)c1O)c1ccccc1.Cl.Cl the inhibition was 16.1%.
With COc1ccccc1OCCNCC(O)c1ccc(C)c(S(N)(=O)=O)c1 the inhibition was 76.5*%.
For Cl.Cl.Clc1ccc(Nc2nnc(Cc3ccncc3)c3ccccc23)cc1 the inhibition was 67.3%.
With CNc1nc(Nc2ccc(C(=O)N3CCOCC3)cc2OC)ncc1Cl the inhibition was 0.0%.
For COc1ccc2c(c[n+](C)c3c4cc5c(cc4ccc23)OCO5)c1OC the inhibition was 55.3%.
Compound C=C(F)C(=O)N1CCN(c2nc(OC[C@@H]3CCCN3C)nc3c2CCN(c2cccc4cccc(Cl)c24)C3)C[C@@H]1CC#N : the inhibition was 64.8%.
With C=CC(=O)Nc1cccc(Oc2nc(Nc3ccc(N4CCN(C)CC4)cc3)nc3ccsc23)c1 the inhibition was 0.0%.
For Cl.Nc1ccn([C@@H]2O[C@H](CO)[C@@H](O)[C@@H]2O)c(=O)n1 the inhibition was 74.6*%.
With COc1cc2c(Nc3cc(Cl)c(OC)c(Cl)c3)c(C#N)cnc2cc1OCCCN1CCN(C)CC1 the inhibition was 0.0%.
With COc1c2c(cc3oc(CO[C@@H]4O[C@H](CO)[C@@H](O)[C@H](O)[C@H]4O)cc(=O)c13)O[C@H](C(C)(C)O)C2 the inhibition was 24.8%.
For Nc1cccc2c(=O)[n-][nH]c(=O)c12.[Na+] the inhibition was 0.0%.
With Cl.Cl.NC1CCC(N[C@@H]2C[C@H]2c2ccccc2)CC1 the inhibition was 0.9%.
Compound COc1nn(-c2ccc(NC(=O)OCc3ccccc3)c(C)c2)c(=O)o1 : the inhibition was 78.2*%.
With CC1(C)Cc2c(CN3CCC4(CC3)CCN(C(=O)c3ccc(N)cn3)CC4)cccc2O1 the inhibition was 0.0%.
With Cc1ccc(-c2c(C#N)c(N)n3c(nc4ccccc43)c2C#N)cc1 the inhibition was 59.3%.
For COc1cc2nccc(Oc3ccc(NC(=O)Nc4cc(C)on4)c(Cl)c3)c2cc1OC the inhibition was 0.0%.
With CN(C)C/C=C/C(=O)Nc1cccc(C(=O)Nc2ccc(Nc3nccc(-c4cccnc4)n3)cc2)c1 the inhibition was 0.0%.
With O=C(CNC(=O)c1cccc(C(F)(F)F)c1)N[C@@H]1CCN(Cc2ccc(Cl)cc2)C1 the inhibition was 0.0%.
Compound Cl.Cn1cc(-c2nc(N[C@@H]3CCCC[C@@H]3N)c(F)c3c2C(=O)NC3)cn1 : the inhibition was 26.2%.
With COc1ccccc1Nc1nc(-c2sc(NC(C)=O)nc2C)cs1 the inhibition was 21.9%.
For O=C(Nc1nnc(-c2ccco2)o1)c1cc(-c2ccccc2)nc2ccccc12 the inhibition was 0.0%.
For CCCc1c(-c2ccccc2)[nH]n(-c2ccccn2)c1=O.Cl the inhibition was 0.0%.
For CN(C)c1ccc(-c2nc3ccc(F)cc3[nH]2)cc1 the inhibition was 21.0%.
For CCCS(=O)(=O)Nc1ccc(F)c(C(=O)c2c[nH]c3ncc(-c4ccc(Cl)cc4)cc23)c1F the inhibition was 14.9%.
With CN(C(=O)Oc1nsnc1N1CCOCC1)C1CCCCCCC1 the inhibition was 27.8%.
Compound CC(C)(C)c1nc(-c2ccc(NC(=O)Nc3cccc(C(F)(F)F)c3)c3ccccc23)c2c(N)nccn12 : the inhibition was 72.4*%.
Compound O=C(NC[C@H](O)CO)c1ccncc1Nc1ccc(I)cc1F : the inhibition was 0.0%.
Compound CC1=C(CC[C@@H](C)CO[C@@H]2O[C@H](CO)[C@@H](O)[C@H](O)[C@H]2O)O[C@H]2C[C@H]3[C@@H]4CC=C5C[C@@H](O[C@@H]6O[C@H](CO)[C@@H](O[C@@H]7O[C@@H](C)[C@H](O)[C@@H](O)[C@H]7O)[C@H](O)[C@H]6O[C@@H]6O[C@@H](C)[C@H](O)[C@@H](O)[C@H]6O)CC[C@]5(C)[C@H]4CC[C@]3(C)[C@@H]12 : the inhibition was 58.5%.
Compound N[C@H](Cc1cnc[nH]1)C(=O)O : the inhibition was 0.0%.
With CN(C)C/C=C/C(=O)Nc1ccc(C(=O)N2CCC[C@@H](Nc3ncc(Cl)c(-c4c[nH]c5ccccc45)n3)C2)cc1 the inhibition was 27.0%.
For CC(C)ON(CC(=O)NO)S(=O)(=O)c1ccc(-c2ccccc2)cc1 the inhibition was 0.0%.
For CC1(C)CC[C@]2(C(=O)O)CC[C@]3(C)C(=CC[C@@H]4[C@@]5(C)CC[C@H](O[C@@H]6O[C@H](C(=O)O)[C@@H](O)[C@H](O)[C@H]6O[C@@H]6O[C@H](CO)[C@@H](O)[C@H](O)[C@H]6O)C(C)(C)[C@@H]5CC[C@]43C)[C@@H]2C1 the inhibition was 78.9*%.
Compound Oc1cc(O)c2c(c1)O[C@@]1(c3ccc(O)c(O)c3)Oc3cc(O)c4c(c3[C@@H]2[C@@H]1O)O[C@H](c1ccc(O)c(O)c1)[C@@H](O)C4 : the inhibition was 53.8%.
For Nc1ccc(Sc2nc3ccccc3s2)c(Cl)c1 the inhibition was 0.0%.
With C=C1CC[C@@H](O)CC1=C/C=C1\CCC[C@]2(C)[C@@H]([C@H](C)CCCC(C)(C)O)CC[C@@H]12.O the inhibition was 36.6%.
Compound COc1ccc(S(=O)(=O)N=C2C=CC=CC2=CC=C2C=CN(O)C=C2)cc1 : the inhibition was 0.0%.
For C=C1[C@H](OC(C)=O)[C@@H](OC(=O)c2ccccc2)[C@@H](OC(C)=O)C(C)(C)[C@H]2O[C@](O)([C@H](C)C2=O)[C@@]2(OC(C)=O)C[C@H](C)[C@H](OC(C)=O)[C@@H]2[C@H]1OC(C)=O the inhibition was 70.7*%.
For CO[C@@H]1C[C@@H](C[C@H]2CC[C@H](C)[C@H]([C@@H](C)C(=O)[O-])O2)O[C@]2(O[C@](C)([C@H]3CC[C@@](C)([C@@H]4O[C@@H]([C@H]5O[C@@](O)(CO)[C@H](C)C[C@@H]5C)C[C@@H]4C)O3)C[C@H]2C)[C@@H]1C.[Na+] the inhibition was 19.2%.
With CCCc1c(OCCCOc2cc(NC(=O)c3nnn[n-]3)c(C)cc2Cl)ccc(C(C)=O)c1O.[Na+] the inhibition was 0.0%.
For C#CC(=O)N(c1ccc(OC)cc1OC)C(C(=O)NCC(=O)OCC)c1cccs1 the inhibition was 38.2%.
For CS(=O)(=O)O.O=C(Nc1cccc(Cl)c1)Nc1ncc(CCNc2ncnc3ccsc23)s1 the inhibition was 0.0%.
With COc1cc2c(cc1OC)[C@@H]1Cc3ccc(OC)c(OC)c3C[N@@+]1([O-])CC2 the inhibition was 69.2%.
For CC1(C)Oc2cc(NS(C)(=O)=O)ccc2N(c2ccc(F)cc2)C1=O the inhibition was 0.0%.
Compound N=C(N)c1ccc2cc(OC(=O)c3ccc(NC4=NCCN4)cc3)ccc2c1 : the inhibition was 0.0%.
For CC(=O)Nc1cc(Oc2ccc3c(c2)CCN3C(=O)Nc2ccc(CN3CCN(C)CC3)c(C(F)(F)F)c2)ncn1 the inhibition was 75.7*%.
With Cl.O=C1CC[C@@]2(O)[C@H]3Cc4ccc(O)c5c4[C@@]2(CCN3CC2CC2)[C@H]1O5 the inhibition was 23.3%.
For CCOC(=O)c1ccc(NC2CCCCC2)c(NCc2ccccc2)c1 the inhibition was 41.5%.
For CCN(CC)c1ccc(C=O)cc1 the inhibition was 0.0%.
Compound O=C(Nc1ccc(F)cc1F)N1CCC(N(CCc2ccc(Cl)cc2)C(=O)c2csc3ccccc23)CC1 : the inhibition was 0.0%.

7 of the compounds above, restated:

SMILES	inhibition (%)
CC1(C)Cc2c(CN3CCC4(CC3)CCN(C(=O)c3ccc(N)cn3)CC4)cccc2O1	0.0
CS(=O)(=O)O.O=C(Nc1cccc(Cl)c1)Nc1ncc(CCNc2ncnc3ccsc23)s1	0.0
Cn1cnc([N+](=O)[O-])c1Sc1ncnc2nc[nH]c12	1.3
COc1ccc2c(c1O)-c1c(O)c(OC)cc3c1[C@H](C2)[N+](C)(C)CC3.[Cl-]	67.7
N#CC[C@@H](C1CCCC1)n1cc(-c2ncnc3[nH]ccc23)cn1	69.2
Cc1cnc(NC(=O)Nc2cc(Br)c(C)cc2OC[C@@H]2CNCCO2)cn1	17.3
CCN(CC)C(=O)c1ccc(-c2cc(NCCCN3CCCCC3)c3ccccc3n2)cc1.Cl.Cl	12.9